Measured values as given in patent US10143681B2, “Factor XIa inhibitors” (MERCK SHARP & DOHME CORP., priority 2016, dated 2018).

Sequences of proteins named here, by UniProt entry; tags and fusion partners are left off. Residues count along the entry.
UniProt P03951, 19-387 partner: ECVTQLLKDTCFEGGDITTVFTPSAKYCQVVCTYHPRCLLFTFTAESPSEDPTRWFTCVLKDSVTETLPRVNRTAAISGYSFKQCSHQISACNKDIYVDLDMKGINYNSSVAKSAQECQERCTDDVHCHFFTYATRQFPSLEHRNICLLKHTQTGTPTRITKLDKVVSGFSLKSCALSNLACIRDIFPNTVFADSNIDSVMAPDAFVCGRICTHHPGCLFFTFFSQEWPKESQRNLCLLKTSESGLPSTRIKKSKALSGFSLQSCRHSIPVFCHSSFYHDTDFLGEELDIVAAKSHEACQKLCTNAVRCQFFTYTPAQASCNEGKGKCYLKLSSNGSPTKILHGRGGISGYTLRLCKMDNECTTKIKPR
UniProt P03951, 388-625: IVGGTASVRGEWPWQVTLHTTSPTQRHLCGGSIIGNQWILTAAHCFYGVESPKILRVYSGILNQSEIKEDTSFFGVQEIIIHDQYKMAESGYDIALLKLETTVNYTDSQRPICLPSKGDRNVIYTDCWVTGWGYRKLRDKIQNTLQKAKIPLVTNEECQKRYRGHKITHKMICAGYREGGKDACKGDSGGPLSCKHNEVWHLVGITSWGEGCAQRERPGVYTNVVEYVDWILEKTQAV
UniProt P03952, 20-390 partner: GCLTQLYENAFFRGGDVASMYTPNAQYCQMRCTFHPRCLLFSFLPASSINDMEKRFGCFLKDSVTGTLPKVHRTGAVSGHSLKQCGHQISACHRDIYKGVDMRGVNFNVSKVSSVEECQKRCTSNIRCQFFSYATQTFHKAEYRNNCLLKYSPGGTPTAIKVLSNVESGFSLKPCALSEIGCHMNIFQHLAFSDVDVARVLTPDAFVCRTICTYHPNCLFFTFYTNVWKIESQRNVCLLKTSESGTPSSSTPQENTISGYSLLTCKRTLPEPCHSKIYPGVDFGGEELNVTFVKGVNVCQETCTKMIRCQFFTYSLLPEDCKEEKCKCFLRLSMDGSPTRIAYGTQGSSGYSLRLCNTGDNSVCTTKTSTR
UniProt P03952, 391-638: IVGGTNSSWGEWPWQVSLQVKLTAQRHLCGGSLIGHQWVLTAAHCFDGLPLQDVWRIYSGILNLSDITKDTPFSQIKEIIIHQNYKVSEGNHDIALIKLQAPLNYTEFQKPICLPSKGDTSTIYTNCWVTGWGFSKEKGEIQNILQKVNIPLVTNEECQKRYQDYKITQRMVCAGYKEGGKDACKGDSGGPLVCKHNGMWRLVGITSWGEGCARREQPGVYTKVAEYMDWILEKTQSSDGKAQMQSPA

These compounds were tested against human Factor XIa (Homo sapiens (Human), UniProt P03951) (assay: Factor XIa Assay). Details: human Factor XIa 0.04 nM, 30 min pre-incubation at 25° C., substrate GPR-AFC; read-out: FXIa IC50.
Assay type: biochemical
Protocol: (§1) The effectiveness of a compound of the present invention as an inhibitor of Coagulation Factor XIa can be determined using a relevant purified serine protease, and an appropriate synthetic substrate. The rate of hydrolysis of the chromogenic or fluorogenic substrate by the relevant serine protease was measured both in the absence and presence of compounds of the present invention. Assays were conducted at room temperature or at 37° C. […] A decrease in the rate of fluorescence change in the presence of inhibitor is indicative of enzyme inhibition. Such methods are known to one skilled in the art. The results of this assay are expressed as the half-maximal inhibitory concentrations (IC50), or the inhibitory constant, Ki.
Compounds were pre-incubated for 30 minutes at 25° C. with human (0.04 nM) Factor XIa in 50 mM HEPES buffer with 150 mM sodium chloride, 5 mM calcium chloride, 0.1% PEG 8000, pH 7.4. Factor XIa enzymatic activity was determined by addition of the substrate glycine-proline-arginine-7-amido-4-trifluoromethylcoumarin (GPR-AFC) and measurement of the fluorescence at 400/505 nm after a 60 minute incubation at 25° C. The % inhibition for each data point was calculated from the data and analyzed using the log (inhibitor) vs. response four parameters equation to determine the half-maximal inhibitory concentrations (IC50). The IC50 were converted to equilibrium inhibitory constants (Ki) using the Cheng-Prusoff equation.

| IC50 [nM] | SMILES |
| --- | --- |
| 132 | O=C(O)c1ccc(NC(=O)C(CC2CC2(F)F)c2ccc(-c3c(C(F)F)ccc(Cl)c3F)c[n+]2[O-])cc1 (single isomer, unassigned) [Example 78, 2-(1-((4-carboxyphenyl)amino)-3-(2,2-difluorocyclopropyl)-1-oxopropan-2-yl)-5-(3-chloro-6-(difluoromethyl)-2-fluorophenyl)pyridine 1-oxide] |
| 80 | CC1(O)CC(CC(C(=O)Nc2ccc(C(=O)O)cc2)c2ccc(-c3c(C(F)F)ccc(Cl)c3F)c[n+]2[O-])C1 (single isomer, unassigned) [Example 82, 2-(1-((4-carboxyphenyl)amino)-3-(3-hydroxy-3-methylcyclobutyl)-1-oxopropan-2-yl)-5-(3-chloro-6-(difluoromethyl)-2-fluorophenyl)pyridine 1-oxide] |
| 144 | CC1C(C)C1CC(C(=O)Nc1ccc(C(=O)O)cc1)c1ccc(-c2c(OC(F)F)ccc(Cl)c2F)c[n+]1[O-] (single isomer, unassigned) [Example 100, 2-(1-((4-carboxyphenyl)amino)-3-(2,3-dimethylcyclopropyl)-1-oxopropan-2-yl)-5-(3-chloro-6-(difluoromethoxy)-2-fluorophenyl)pyridine 1-oxide] |
| 0.6 | CC1(O)CC(CC(C(=O)Nc2ccc(C(=O)O)cc2)c2ccc(-c3c(C(F)F)ccc(Cl)c3F)c[n+]2[O-])C1 (single isomer, unassigned) [Example 83, 2-(1-((4-carboxyphenyl)amino)-3-(3-hydroxy-3-methylcyclobutyl)-1-oxopropan-2-yl)-5-(3-chloro-6-(difluoromethyl)-2-fluorophenyl)pyridine 1-oxide] |
| 1.8 | CC1CC1C[C@@H](C(=O)Nc1ccc(C(=O)O)cc1)c1ccc(-c2c(C(F)(F)F)ccc(Cl)c2F)c[n+]1[O-] (single isomer, unassigned) [Example 65] |
| 0.47 | COc1cc(C(CC2CC2)C(=O)Nc2ccc(C(=O)O)cc2)[n+]([O-])cc1-c1c(OC(F)F)ccc(Cl)c1F (single isomer, unassigned) [Example 71, 2-(1-((4-carboxyphenyl)amino)-3-cyclopropyl-1-oxopropan-2-yl)-5-(3-chloro-6-(difluoromethoxy)-2-fluorophenyl)-4-methoxypyridine 1-oxide] |
| 1.8 | O=C(O)c1ccc(NC(=O)C(CC2CC(F)C2)c2ccc(-c3c(OC(F)F)ccc(Cl)c3F)c[n+]2[O-])cc1 (single isomer, unassigned) [Example 102, 2-(1-((4-carboxyphenyl)amino)-3-(3-fluorocyclobutyl)-1-oxopropan-2-yl)-5-(3-chloro-6-(difluoromethoxy)-2-fluorophenyl)pyridine 1-oxide] |
| 80.3 | O=C(O)c1ccc(NC(=O)C(CC2CCC2)c2ccc(-c3c(C(F)F)ccc(Cl)c3F)c[n+]2[O-])cc1F (single isomer, unassigned) [Example 119, 2-(1-((4-carboxy-3-fluorophenyl)amino)-3-cyclobutyl-1-oxopropan-2-yl)-5-(3-chloro-6-(difluoromethyl)-2-fluorophenyl)pyridine 1-oxide] |
| 177 | CC1CC1C[C@H](C(=O)Nc1ccc(C(=O)O)cc1)c1ccc(-c2c(C(F)(F)F)ccc(Cl)c2F)c[n+]1[O-] (single isomer, unassigned) [Example 64] |
| 65.1 | O=C(O)c1ccc(NC(=O)C(CC2CC2(F)F)c2ccc(-c3c(C(F)F)ccc(Cl)c3F)c[n+]2[O-])cc1 (single isomer, unassigned) [Example 79, 2-(1-((4-carboxyphenyl)amino)-3-(2,2-difluorocyclopropyl)-1-oxopropan-2-yl)-5-(3-chloro-6-(difluoromethyl)-2-fluorophenyl)pyridine 1-oxide] |
| 1000 | CCOC(=O)c1ccc(NC(=O)C(CC2CC2)c2ccc(-c3c(C(F)F)ccc(Cl)c3F)c[n+]2[O-])cc1 (single isomer, unassigned) [Example 115, 5-(3-chloro-6-(difluoromethyl)-2-fluorophenyl)-2-(3-cyclopropyl-1-((4-(ethoxycarbonyl)phenyl)amino)-1-oxopropan-2-yl)pyridine 1-oxide] |
| 2.3 | O=C(O)c1ccc(NC(=O)C(CC2CC2(F)F)c2ccc(-c3c(C(F)F)ccc(Cl)c3F)c[n+]2[O-])cc1 (single isomer, unassigned) [Example 77, 2-(1-((4-carboxyphenyl)amino)-3-(2,2-difluorocyclopropyl)-1-oxopropan-2-yl)-5-(3-chloro-6-(difluoromethyl)-2-fluorophenyl)pyridine 1-oxide] |
| 133 | CC1(O)CC(CC(C(=O)Nc2ccc(C(=O)O)cc2)c2ccc(-c3c(C(F)F)ccc(Cl)c3F)c[n+]2[O-])C1 (single isomer, unassigned) [Example 84, 2-(1-((4-carboxyphenyl)amino)-3-(3-hydroxy-3-methylcyclobutyl)-1-oxopropan-2-yl)-5-(3-chloro-6-(difluoromethyl)-2-fluorophenyl)pyridine 1-oxide] |
| > 1000 | O=C(O)c1ccc(NC(=O)[C@H](CC2CC2)c2ccc(-c3c(OC(F)F)ccc(Cl)c3F)c[n+]2[O-])cc1 (single isomer, unassigned) [Example 1] |
| 2.6 | CC1(O)CC(CC(C(=O)Nc2ccc(C(=O)O)cc2)c2ccc(-c3c(C(F)F)ccc(Cl)c3F)c[n+]2[O-])C1 (single isomer, unassigned) [Example 85, 2-(1-((4-carboxyphenyl)amino)-3-(3-hydroxy-3-methylcyclobutyl)-1-oxopropan-2-yl)-5-(3-chloro-6-(difluoromethyl)-2-fluorophenyl)pyridine 1-oxide] |

| SMILES | IC50 [nM] |
| --- | --- |
| O=C(O)c1ccc(NC(=O)C(CC2CC(F)(F)C2)c2ccc(-c3c(OC(F)F)ccc(Cl)c3F)c[n+]2[O-])cc1 (racemic) [Example 50, (S)- and (R)-2-(1-((4-carboxyphenyl)amino)-3-(3,3-difluorocyclobutyl)-1-oxopropan-2-yl)-5-(3-chloro-6-(difluoromethoxy)-2-fluorophenyl)pyridine 1-oxide] | 3.8 |
| O=C(O)c1ccc(NC(=O)C(CC2CC(F)(F)C2)c2ccc(-c3c(OC(F)F)ccc(Cl)c3F)c[n+]2[O-])cc1 (racemic) [Example 49, (S)- and (R)-2-(1-((4-carboxyphenyl)amino)-3-(3,3-difluorocyclobutyl)-1-oxopropan-2-yl)-5-(3-chloro-6-(difluoromethoxy)-2-fluorophenyl)pyridine 1-oxide] | > 1000 |

These compounds were tested against Human plasma kallikrein (Homo sapiens (Human), UniProt P03952) (assay: Kallikrein Assay). Details: purified Human plasma kallikrein 0.5 nM, substrate Acetyl-K-P-R-AFC; read-out: P. KLK IC50.
Assay type: biochemical
Protocol: as §1, with “Kallikrein” for “Coagulation Factor XIa”
Kallikrein determinations were made in 50 mM HEPES buffer at pH 7.4 containing 150 mM NaCl, 5 mM CaCl2, and 0.1% PEG 8000 (polyethylene glycol; Fisher Scientific). Determinations were made using purified Human plasma kallikrein at a final concentration of 0.5 nM (Enzyme Research Laboratories) and the synthetic substrate, Acetyl-K-P-R-AFC (Sigma # C6608) at a concentration of […].
Times required to achieve equilibration between enzyme and inhibitor were determined in control experiments. The reactions were performed under linear progress curve conditions and fluorescence increase measured at 405 Ex/510 Em nm. […] IC50 was determined by inflection point from a four parameter logistic curve fit. Ki was calculated using the Cheng Prusoff equation, Ki=IC50/(1+([S]/Km)).

| IC50 [nM] | SMILES |
| --- | --- |
| 9.4 | CC1(O)CC(CC(C(=O)Nc2ccc(C(=O)O)cc2)c2ccc(-c3c(C(F)F)ccc(Cl)c3F)c[n+]2[O-])C1 (single isomer, unassigned) [Example 83, 2-(1-((4-carboxyphenyl)amino)-3-(3-hydroxy-3-methylcyclobutyl)-1-oxopropan-2-yl)-5-(3-chloro-6-(difluoromethyl)-2-fluorophenyl)pyridine 1-oxide] |
| 59.9 | CC1CCC1CC(C(=O)Nc1ccc(C(=O)O)cc1)c1ccc(-c2c(OC(F)F)ccc(Cl)c2F)c[n+]1[O-] (single isomer, unassigned) [Example 106, 2-(1-((4-carboxyphenyl)amino)-3-(2-methylcyclobutyl)-1-oxopropan-2-yl)-5-(3-chloro-6-(difluoromethoxy)-2-fluorophenyl)pyridine 1-oxide] |
| 21 | C[C@H]1C[C@@H]1C[C@@H](C(=O)Nc1ccc(C(=O)O)cc1)c1ccc(-c2c(OC(F)F)ccc(Cl)c2F)c[n+]1[O-] (single isomer, unassigned) [Example 55] |
| 16 | C[C@@H]1C[C@H]1C[C@@H](C(=O)Nc1ccc(C(=O)O)cc1)c1ccc(-c2c(OC(F)F)ccc(Cl)c2F)c[n+]1[O-] (single isomer, unassigned) [Example 56] |
| 15.7 | CC1CCC1CC(C(=O)Nc1ccc(C(=O)O)cc1)c1ccc(-c2c(OC(F)F)ccc(Cl)c2F)c[n+]1[O-] (single isomer, unassigned) [Example 105, 2-(1-((4-carboxyphenyl)amino)-3-(2-methylcyclobutyl)-1-oxopropan-2-yl)-5-(3-chloro-6-(difluoromethoxy)-2-fluorophenyl)pyridine 1-oxide] |
| 38 | CC1(O)CC(CC(C(=O)Nc2ccc(C(=O)O)cc2)c2ccc(-c3c(C(F)F)ccc(Cl)c3F)c[n+]2[O-])C1 (single isomer, unassigned) [Example 85, 2-(1-((4-carboxyphenyl)amino)-3-(3-hydroxy-3-methylcyclobutyl)-1-oxopropan-2-yl)-5-(3-chloro-6-(difluoromethyl)-2-fluorophenyl)pyridine 1-oxide] |
